The source of these data is ChEMBL document CHEMBL4196129, “Structural Optimization and Characterization of Potent Analgesic Macrocyclic Analogues of Neurotensin (8-13)” (J Med Chem, 2018).

Sequences of proteins named here, by UniProt entry; tags and fusion partners are left off.
UniProt P30989, whole entry: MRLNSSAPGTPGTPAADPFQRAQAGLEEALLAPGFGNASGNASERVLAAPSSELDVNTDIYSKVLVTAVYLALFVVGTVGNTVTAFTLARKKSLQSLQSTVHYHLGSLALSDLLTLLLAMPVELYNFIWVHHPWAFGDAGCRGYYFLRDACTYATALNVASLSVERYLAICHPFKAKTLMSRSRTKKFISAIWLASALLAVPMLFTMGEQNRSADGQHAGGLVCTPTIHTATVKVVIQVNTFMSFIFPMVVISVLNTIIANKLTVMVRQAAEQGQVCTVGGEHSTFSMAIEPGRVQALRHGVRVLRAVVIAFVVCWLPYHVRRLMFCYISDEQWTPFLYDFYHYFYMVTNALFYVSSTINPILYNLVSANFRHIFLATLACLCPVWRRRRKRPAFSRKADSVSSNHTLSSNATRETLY

The target of data set [1] is T1, Neurotensin receptor type 1 (Homo sapiens, UniProt P30989). The data set is described as follows: Agonist activity at GFP10/beta-arrestin2-Rluc2 fused human NTS1 expressed in CHO-K1 cell membranes assessed as beta-arrestin2 recruitment after 20 mins by BRET assay. It is filed as functional, cell-based. For orientation: Activated receptors often draw arrestin, which recruitment assays turn into a signal.

Data set [2] is described as follows: Half life in rat plasma by UPLC-MS analysis. Type of data set: ADME, cell-free. The gist of the method: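 Quenched with acetonitrile/ethanol (1:1) plus 0.5% nicotinamide, centrifuged and filtered. Parent peptide measured by UPLC-MS; half-life from a one-phase decay fit.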
The target of data set [3] is T1, Neurotensin receptor type 1. Briefly: Agonist activity at GFP10/beta-arrestin1-Rluc2 fused human NTS1 expressed in CHO-K1 cell membranes assessed as beta-arrestin1 recruitment after 20 mins by BRET assay. Type of data set: functional, cell-based.

In general, EC50 refers to the concentration needed to bring the measured effect to its halfway point. One may read the half-life as the time needed for the level to fall by half in the phase considered. Lower therefore signals rapid decline. In the case of `CC[C@H](C)[C@H](NC(=O)[C@@H]1Cc2ccc(O)c(c2)CC=CCNCCCC[C@H](N)C(=O)N[C@@H](CCCCN)C(=O)N2CCC[C@H]2C(=O)N1)C(=O)N[C@@H](CC(C)C)C(=O)O`, the EC50 in data set [1] worked out at 21 nM. The half-life in data set [2] was determined as 19 min.
For the compound `CC[C@H](C)[C@H](NC(=O)[C@@H]1Cc2ccc(O)c(c2)CC=CCCCNCCCC[C@H](N)C(=O)N[C@@H](CCCCN)C(=O)N2CCC[C@H]2C(=O)N1)C(=O)N[C@@H](CC(C)C)C(=O)O`, the EC50 was 24 nM in data set [1] and 50 nM in data set [3].
`CC[C@H](C)[C@H](NC(=O)[C@@H]1Cc2ccc(O)c(c2)CC=CCNCCCC[C@@H](N)C(=O)N[C@@H](CCCCN)C(=O)N2CCC[C@H]2C(=O)N1)C(=O)N[C@@H](CC(C)C)C(=O)O`: in data set [1], the EC50 was determined as 201 nM.
As to `CC[C@H](C)[C@H](NC(=O)[C@@H]1Cc2ccc(O)c(c2)CC=CCNCC[C@H](N)C(=O)N[C@@H](CCCCN)C(=O)N2CCC[C@H]2C(=O)N1)C(=O)N[C@@H](CC(C)C)C(=O)O`, the concentration giving a half-maximal response (EC50) in data set [1] stood at 19 nM; in data set [3], 35 nM.
For `CC[C@H](C)[C@H](NC(=O)[C@@H]1Cc2ccc(O)c(c2)CC=CCCNCCCC[C@H](N)C(=O)N[C@@H](CCCCN)C(=O)N2CCC[C@H]2C(=O)N1)C(=O)N[C@@H](CC(C)C)C(=O)O`, in data set [3], the 50% effective concentration (EC50) is 24 nM.
For the compound `CC[C@H](C)[C@H](NC(=O)[C@@H]1Cc2ccc(O)c(c2)CC=CCN(S(=O)(=O)c2ccccc2[N+](=O)[O-])CCCC[C@H](N)C(=O)N[C@@H](CCCCN)C(=O)N2CCC[C@H]2C(=O)N1)C(=O)N[C@@H](CC(C)C)C(=O)O`, in data set [1], the EC50 came out at 92 nM.
